Laboratory results from ChEMBL document CHEMBL1123058, “Synthesis of some quaternary ammonium alkylating agents and their effects on soman-inhibited acetylcholinesterase” (1985).

target: T1, Acetylcholinesterase (Rattus norvegicus, UniProt P37136); assay: Effect on Acetylcholinesterase activity in rat erythrocytes; details: read-out: I50

Going from `CC[N+](C)(CC)CC(=O)CCN1C(=O)CCC1=O` to `BrCCCCCC[n+]1ccccc1`, the IC50 falls from 100 µM to 60 µM (1.7-fold). The second is the more potent here.

target: T1, Acetylcholinesterase; assay: Effect on Acetylcholinesterase activity in rat brain homogenates; details: read-out: I50

In the case of `BrCCCCCC[n+]1ccccc1`, the IC50 is reported as 90 µM.

species: Rattus norvegicus; assay: Compound (1 mM) was evaluated in vitro for the effect on rate of aging(rate constant) of Soman-inhibited rat erythrocyte AChE and first order rate constant was determined; details: 1000 µM

Compared with `C[n+]1ccc(CCN2C(=O)CCC2=O)cc1.[I-]`, `CC[N+](C)(CC)CC(=O)CCN1C(=O)CCC1=O.[I-]` is higher in Rate constant: 0.0638 for the first, 0.0661 for the second.

First: CC1C=CN(C)c2c1c1c(n2C)CCC1OCCCl.O=C(O)/C=C/C(=O)O (stereo not drawn)
Second: CS(=O)(=O)[O-].C[n+]1ccccc1CCl
The Rate constant of the first is higher: 0.109 for the first, 0.0585 for the second.

Compared with `CCN(CC)CCc1cccc[n+]1C.[I-]`, `C[n+]1ccccc1CCC(O)CCl.[I-]` (stereo not drawn) is lower in Rate constant: 0.0562 for the first, 0.05 for the second.

Going from `BrCCCCCC[n+]1ccccc1.[Br-]` to `CC[N+](C)(CC)CCc1ccccn1.[I-]`, the Rate constant falls from 0.0672 to 0.0472.

First: C[N+](C)(C)CCCCl.[Br-]
Second: CC[N+](C)(CC)CCc1ccncc1.[I-]
The Rate constant of the first is higher: 0.0359 for the first, 0.0306 for the second.
